The chains behind the UniProt entries cited, without tags or fusion partners.
UniProt P09874, whole entry: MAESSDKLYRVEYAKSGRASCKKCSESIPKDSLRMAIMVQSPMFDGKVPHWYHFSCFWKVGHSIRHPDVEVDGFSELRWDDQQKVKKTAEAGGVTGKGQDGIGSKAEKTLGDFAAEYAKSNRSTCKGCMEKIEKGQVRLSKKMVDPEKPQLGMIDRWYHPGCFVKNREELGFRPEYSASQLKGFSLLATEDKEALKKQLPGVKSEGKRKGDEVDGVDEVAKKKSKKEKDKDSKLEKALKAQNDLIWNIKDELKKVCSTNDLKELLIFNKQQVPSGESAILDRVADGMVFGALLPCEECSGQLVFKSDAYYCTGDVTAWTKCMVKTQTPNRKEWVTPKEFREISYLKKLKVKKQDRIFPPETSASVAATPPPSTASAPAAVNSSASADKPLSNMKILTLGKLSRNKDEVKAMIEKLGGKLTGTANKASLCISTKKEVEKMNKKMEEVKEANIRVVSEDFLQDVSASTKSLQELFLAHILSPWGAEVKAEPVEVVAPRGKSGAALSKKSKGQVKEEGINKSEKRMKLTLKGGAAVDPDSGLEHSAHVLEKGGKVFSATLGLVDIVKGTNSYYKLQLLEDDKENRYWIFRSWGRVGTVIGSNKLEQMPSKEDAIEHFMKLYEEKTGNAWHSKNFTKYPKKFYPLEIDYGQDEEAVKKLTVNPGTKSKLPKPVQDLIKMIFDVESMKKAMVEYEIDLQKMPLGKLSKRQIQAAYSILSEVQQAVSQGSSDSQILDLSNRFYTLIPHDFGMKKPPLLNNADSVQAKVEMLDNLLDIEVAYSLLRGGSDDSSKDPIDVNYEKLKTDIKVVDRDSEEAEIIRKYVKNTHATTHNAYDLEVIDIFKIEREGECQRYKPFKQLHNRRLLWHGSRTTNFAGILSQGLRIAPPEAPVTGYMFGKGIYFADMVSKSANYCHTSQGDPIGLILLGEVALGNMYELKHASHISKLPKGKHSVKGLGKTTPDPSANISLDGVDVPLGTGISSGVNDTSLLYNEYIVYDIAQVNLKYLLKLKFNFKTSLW

According to patent US9598396B2, “Tetrahydrophenanthridinones and tetrahydrocyclopentaquinolinones as PARP and tubulin polymerization inhibitors” (Janssen Pharmaceutica NV, priority 2008, dated 2017):

Target: Human PARP-1 enzyme (Homo sapiens (Human), UniProt P09874)
Experiment: In vitro Scintillation Proximity Assay (SPA) for PARP-1 inhibitory activity
Assay type: biochemical
Details: nicked DNA activated PARP-1, [3H]-NAD+, biotinylated histones
Method: C.1.In Vitro Scintillation Proximity Assay (SPA) for PARP-1 Inhibitory Activity
Compounds of the present invention were tested in an in vitro assay based on SPA technology (proprietary to GE healthcare).
In principle, the assay relies upon the well established SPA technology for the detection of poly(ADP-ribosyl)ation of biotinylated target proteins, i.e histones. This ribosylation is induced using nicked DNA activated PARP-1 enzyme and [^3H]-nicotinamide adenine dinucleotide ([^3H]-NAD^+) as ADP-ribosyl donor.
Histones (type II-A, supplier: Sigma) were biotinylated using the biotinylation kit of Amersham and stored aliquoted at −20° C. A stock solution of 100 mg/ml SPA poly(vinyl toluene) (PVT) beads (supplier: Amersham) was made in PBS. A stock solution of 61.6 nM […] was made by adding [^3H]-NAD^+ (0.1 mCi/ml, supplier: Perkin Elmer) to incubation buffer (50 mM Tris/HCl, pH 8; 0.2 mM DTT; 4 mM MgCl2). A solution of 4 mM NAD^+ (supplier: Sigma) was made. […] The beads were sedimented by centrifugation (10 min, 800 rpm) and plates transferred to a TopCountNXT™ (Packard) for scintillation counting, values were expressed as counts per minute (cpm). […] For each sample, the amount of cpm was expressed as a percentage of the mean cpm value of the controls. […] Herein the effects of test compounds are expressed as pIC50 (the negative log value of the IC50-value). […]

in vitro SPA assay PARP-1 pIC50: 7.27
SMILES: COc1cc(OC)nc(CC(C)(C#N)c2ccc3c4c(c(=O)[nH]c3c2)CCCC4)n1 (stereo not shown) [Co. No. 6]
